Target: melanocortin 1 receptor (MC1R) (Homo sapiens, UniProt Q01726)
Assay: cAMP accumulation assay (HTRF), agonist and/or antagonist activity at MC1R (Example 1, Table 11)
Conditions: dose-response, cAMP

Chains of the proteins cited; added tags and fusions are not shown.
UniProt Q01726, whole entry: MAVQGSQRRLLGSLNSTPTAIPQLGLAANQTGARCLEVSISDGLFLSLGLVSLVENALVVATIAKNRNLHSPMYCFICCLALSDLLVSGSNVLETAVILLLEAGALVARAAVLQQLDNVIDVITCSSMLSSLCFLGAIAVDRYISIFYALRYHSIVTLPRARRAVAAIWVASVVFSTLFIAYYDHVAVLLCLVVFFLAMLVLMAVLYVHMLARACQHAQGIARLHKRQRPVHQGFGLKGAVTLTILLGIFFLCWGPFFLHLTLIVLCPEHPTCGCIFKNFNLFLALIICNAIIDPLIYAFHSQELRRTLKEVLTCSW

Row | SMILES | EC50 [nM]
1 | CCCC[C@H](NC(C)=O)C(=O)N[C@H]1CC(=O)NCCCC[C@@H](C(=O)N[C@@H](C(=O)N2CCC[C@@H]2C(N)=O)C(C)C)NC(=O)[C@H](Cc2c[nH]c3ccccc23)NC(=O)[C@H](CCCNC(=N)N)NC(=O)[C@@H](Cc2ccc3ccccc3c2)NC(=O)[C@H]2CCCN2C1=O | 510
2 | CCCC[C@H](NC(C)=O)C(=O)N[C@H]1C(=O)N2CCC[C@H]2C(=O)N[C@H](Cc2ccc3ccccc3c2)C(=O)N[C@@H](CCCNC(=N)N)C(=O)N[C@@H](Cc2c[nH]c3ccccc23)C(=O)N[C@H](C(=O)N[C@@H](C(=O)N2CCC[C@@H]2C(N)=O)C(C)C)C(C)(C)SSC1(C)C | 4.6
3 | CCCC[C@H](NC(C)=O)C(=O)N[C@H]1CC(=O)NCCCC[C@@H](C(=O)N2CCC[C@@H]2C(N)=O)NC(=O)[C@H](Cc2c[nH]c3ccccc23)NC(=O)[C@H](CCCNC(=N)N)NC(=O)[C@@H](Cc2ccc3ccccc3c2)NC(=O)[C@@H]2CCCN2C1=O | 150
4 | CCCC[C@H](NC(C)=O)C(=O)N[C@H]1CC(=O)NCCCC[C@@H](C(=O)N[C@H](CC(N)=O)C(N)=O)NC(=O)[C@H](Cc2c[nH]c3ccccc23)NC(=O)[C@H](CCCNC(=N)N)NC(=O)[C@@H](Cc2ccc3ccccc3c2)NC(=O)[C@@H]2CCCN2C1=O | 10
5 | CCCC[C@H](NC(C)=O)C(=O)N[C@H]1CC(=O)NCCCC[C@@H](C(=O)N[C@H](C)C(N)=O)NC(=O)[C@H](Cc2c[nH]c3ccccc23)NC(=O)[C@H](CCCNC(=N)N)NC(=O)[C@@H](Cc2ccc3ccccc3c2)NC(=O)[C@@H]2CCCN2C1=O | 4.8
6 | CCCC[C@H](NC(C)=O)C(=O)N[C@H]1CC(=O)NCCCC[C@@H](C(=O)N2CCC[C@@H]2C(=O)N2CCC[C@@H]2C(N)=O)NC(=O)[C@H](Cc2c[nH]c3ccccc23)NC(=O)[C@H](CCCNC(=N)N)NC(=O)[C@@H](Cc2ccc3ccccc3c2)NC(=O)[C@@H]2CCCN2C1=O | 86
7 | CCCC[C@H](NC(C)=O)C(=O)N[C@H]1CC(=O)NCCCC[C@@H](C(=O)N[C@@H](C(=O)N2CCC[C@@H]2C(N)=O)C(C)C)NC(=O)[C@H](Cc2c[nH]cn2)NC(=O)[C@H](CCCNC(=N)N)NC(=O)[C@@H](Cc2ccc3ccccc3c2)NC(=O)[C@@H]2CCCN2C1=O | > 1000
8 | CCCC[C@H](NC(C)=O)C(=O)N[C@H]1CC(=O)NCCCC[C@@H](C(=O)N[C@@H](C(=O)N[C@H](CC(N)=O)C(N)=O)C(C)C)NC(=O)[C@H](Cc2c[nH]c3ccccc23)NC(=O)[C@H](CCCNC(=N)N)NC(=O)[C@@H](Cc2ccc3ccccc3c2)NC(=O)[C@@H]2CCCN2C1=O | 11

The next lines start with the values.

Row | EC50 [nM] | SMILES
9 | 130 | CCCC[C@H](NC(C)=O)C(=O)N[C@H]1CC(=O)NCCCC[C@@H](C(=O)N[C@@H](C(=O)N2CCC[C@@H]2C(N)=O)C(C)C)NC(=O)[C@H](Cc2c[nH]c3ccccc23)NC(=O)[C@H](CCCNC(=N)N)NC(=O)[C@@H](Cc2ccc3ccccc3c2)NC(=O)[C@@H](CCSC)NC1=O
10 | > 1000 | CCCC[C@H](NC(C)=O)C(=O)N[C@H]1CSSC[C@H](C(=O)N[C@@H](C(=O)N2CCC[C@@H]2C(N)=O)C(C)C)NC(=O)[C@H](Cc2c[nH]c3ccccc23)NC(=O)[C@H](CCCNC(=N)N)NC(=O)[C@@H](Cc2ccc3ccccc3c2)NC1=O
11 | 970 | CCCC[C@H](NC(C)=O)C(=O)N[C@H]1CC(=O)NCCCC[C@H](C(=O)N[C@@H](C(=O)N2CCC[C@@H]2C(N)=O)C(C)C)NC(=O)[C@H](Cc2c[nH]c3ccccc23)NC(=O)[C@H](CCCNC(=N)N)NC(=O)[C@@H](Cc2ccc3ccccc3c2)NC(=O)[C@@H]2CCCN2C1=O
12 | 49 | CCCC[C@@H](NC(C)=O)C(=O)N[C@H]1CC(=O)NCCCC[C@@H](C(=O)N[C@@H](C(=O)N2CCC[C@@H]2C(N)=O)C(C)C)NC(=O)[C@H](Cc2c[nH]c3ccccc23)NC(=O)[C@H](CCCNC(=N)N)NC(=O)[C@@H](Cc2ccc3ccccc3c2)NC(=O)[C@@H]2CCCN2C1=O
13 | 930 | CCCC[C@H](NC(C)=O)C(=O)N[C@H]1CC(=O)NCCCC[C@@H](C(=O)N[C@@H](C(=O)N2CCC[C@@H]2C(N)=O)C(C)C)NC(=O)[C@H](Cc2c[nH]c3ccccc23)NC(=O)[C@H](CCCNC(=N)N)NC(=O)[C@@H](Cc2ccc3ccccc3c2)NC1=O
